The values that follow come from ChEMBL document CHEMBL1147425, “Structure-activity relationships of non-imidazole H(3) receptor ligands. Part 3: 5-Substituted 3-phenyl-1,2,4-oxadiazoles as potent antagonists” (Bioorg Med Chem Lett, 2004).

Chains of the proteins cited; added tags and fusions are not shown. Lines headed by an entry give the natural chain unless they say otherwise; changes in a name come on top.
UniProt Q9QYN8: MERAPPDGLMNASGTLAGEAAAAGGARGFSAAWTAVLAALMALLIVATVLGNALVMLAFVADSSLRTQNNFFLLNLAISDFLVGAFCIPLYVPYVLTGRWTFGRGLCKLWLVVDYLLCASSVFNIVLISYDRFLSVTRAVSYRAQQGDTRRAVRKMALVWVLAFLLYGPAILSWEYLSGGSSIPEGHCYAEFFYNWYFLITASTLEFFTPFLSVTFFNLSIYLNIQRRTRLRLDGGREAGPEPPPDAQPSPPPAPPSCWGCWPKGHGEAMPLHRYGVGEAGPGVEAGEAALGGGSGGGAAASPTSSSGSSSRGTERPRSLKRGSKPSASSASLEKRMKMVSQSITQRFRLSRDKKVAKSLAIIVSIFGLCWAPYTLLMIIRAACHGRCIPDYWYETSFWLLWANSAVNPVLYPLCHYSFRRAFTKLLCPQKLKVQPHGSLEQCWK

This assay addresses Histamine H3 receptor (Rattus norvegicus, UniProt Q9QYN8). Nature of the assay: Binding affinity for rat histamine H3 receptor on rat cortical cells.

The Ki is a measure of affinity in units of concentration, obtained from inhibition or displacement. The low end stands for higher affinity, the high end for lower affinity. Take `CCc1nc(-c2ccc(OCCCN3CCCN(C(=O)[C@@H](C)NC(=O)c4ccco4)CC3)cc2F)no1`: the affinity, expressed as Ki, was 4.1 nM.
